Data from PubChem BioAssay AID1778 (Sanford-Burnham Center for Chemical Genomics, 2009).
This is one part of the list. Entries with a potency or affinity are not part of this list. Activity calls are given as the source filed them. Rule as the data show it: active = inhibition above about 50%; inactive = the rest.

Amino acid sequences for entries named in this document (tags omitted). A change or cut given only in a name is not applied to a line headed by its entry.
UniProt P41145: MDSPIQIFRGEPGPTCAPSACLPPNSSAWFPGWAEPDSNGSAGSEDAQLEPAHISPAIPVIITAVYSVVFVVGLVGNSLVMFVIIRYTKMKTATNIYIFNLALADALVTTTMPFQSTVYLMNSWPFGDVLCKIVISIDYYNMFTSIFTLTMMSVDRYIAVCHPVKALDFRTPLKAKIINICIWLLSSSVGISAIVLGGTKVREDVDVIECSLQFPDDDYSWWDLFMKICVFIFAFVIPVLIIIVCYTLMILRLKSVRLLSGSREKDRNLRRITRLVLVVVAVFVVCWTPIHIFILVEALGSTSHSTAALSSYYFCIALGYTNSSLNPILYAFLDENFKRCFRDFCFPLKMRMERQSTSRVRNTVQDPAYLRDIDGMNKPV

Each compound was assayed against Kappa-type opioid receptor (Homo sapiens) (UniProt P41145) (assay: kappa opioid receptor blockers – cell-based, luminescence, uHTS (AID 1778)). Details: KOR beta-arrestin recruitment, antagonist mode, at 10 µM, hits give high values.
With Cn1c(=O)c2ncn(CC(=O)Nc3nc(-c4ccc(Cl)cc4)cs3)c2n(C)c1=O the inhibition was inactive: 2.8%.
In the case of CCCCc1nc2ccccc2n1CC(=O)NN, the inhibition was inactive: 7.6%.
With c1ccc(CN2CCC(Nc3ncnc4sccc34)CC2)cc1 the inhibition was inactive: 3.9%.
In the case of CC(C)(C)C(=O)NC(Sc1ccncn1)C(Cl)(Cl)Cl (stereo unspecified), the inhibition was inactive: 10.1%.
With CCN(Cc1ccccc1)C(=O)Cn1c(C(C)O)nc2ccccc21 (stereo unspecified) the inhibition was inactive: -44.4%.
In the case of Cn1c(=O)c2c(ncn2CC(=O)NC(C)(C)C)n(C)c1=O, the inhibition was inactive: 0.4%.
In the case of Cn1c(=O)c2c(ncn2CC(=O)Nc2ccc(N3CCOCC3)cc2)n(C)c1=O, the inhibition was inactive: 40.8%.
In the case of CSc1nc2ccccc2n1CC(=O)N1CCCCC1, the inhibition was inactive: -8.5%.
In the case of CC(C)OC(=O)c1ccc(NC(=O)Cn2c(-c3nonc3N)nc3ccccc32)cc1, the inhibition was inactive: -19.5%.
With Cc1nn(CC(=O)Nc2ccc3c(c2)nc2n3CCN(C3CCCCC3)C2)c(=O)c2ccccc12 the inhibition was inactive: -24.8%.
In the case of Cc1noc(C)c1S(=O)(=O)N(CC(=O)N1CCn2c1nc1ccccc12)c1ccc(C(C)C)cc1, the inhibition was inactive: 46.1%.
With O=[N+]([O-])c1ccc(NC2CCN(Cc3ccccc3)CC2)c2ccncc12 the inhibition was inactive: -16.5%.
For CCOC(=O)N1CCN(c2c(NC3CCN(Cc4ccccc4)CC3)c(=O)c2=O)CC1, the inhibition was inactive: -22.2%.
For CC(C)Sc1nc2ccccc2n1CC(N)=O, the inhibition was inactive: 22.2%.
O=C(Cn1cnc2ccccc21)N1CCN(S(=O)(=O)c2ccccc2)CC1 was tested, and the inhibition was inactive: -0.2%.
CN(C)C1(c2nnnn2-c2ccc(Cl)cc2)CCCCC1 was tested, and the inhibition was inactive: 20.2%.
In the case of COC(=O)c1ccc(N2C(=O)CC(N3CCC(n4c(=O)[nH]c5ccccc54)CC3)C2=O)cc1 (stereo unspecified), the inhibition was inactive: 23.3%.
For COc1cccc(NC(=O)Cn2c(-c3cncs3)nc3ccccc32)c1, the inhibition was inactive: 7.9%.
With COc1cccc(CNC(=O)CCNC(=O)N2CCn3c2nc2ccccc23)c1 the inhibition was inactive: -8.3%.
O=C1CCC(=O)N1c1ccc(NC2CCN(Cc3ccccc3)CC2)c([N+](=O)[O-])c1 was tested, and the inhibition was inactive: 20.9%.
With O=C(c1ccccc1Br)N1CCn2c1nc1ccccc12 the inhibition was inactive: -2.8%.
With Cc1cccc(NC(=O)Cn2c(/C=C/c3ccccc3)nc3ccccc32)c1 the inhibition was inactive: -23%.
O=C(O)CNc1ccc([As](=O)(O)O)cc1 was tested, and the inhibition was inactive: 22.2%.
For O=S(=O)(Cc1ccccc1)N1CCn2c(nc3ccccc32)C1, the inhibition was inactive: -9.6%.
For CCN(CC)S(=O)(=O)c1ccc(NC2CCN(Cc3ccccc3)CC2)nc1, the inhibition was inactive: -18.3%.
For CC1CCCN(Cc2nc3c(c(=O)n(C)c(=O)n3C)n2CC(N)=O)C1 (stereo unspecified), the inhibition was inactive: 5.4%.
